{
  "source": "paper PMC3722453",
  "about": "“N-truncated amyloid β (Aβ) 4-42 forms stable aggregates and induces acute and long-lasting behavioral deficits” (Acta Neuropathologica, 2013)",
  "key": {"[1]": {"assay": "1D 1H NMR monomer consumption assay", "format": "physicochemical", "conditions": "40 μM peptide, phosphate buffer 20 mM pH 7.2, 25 mM NaCl; after 14 h of incubation at 37 °C; methyl and aromatic 1H signals normalised to DSS", "method": "1D ^1H NMR spectra of the five different Aβ peptides were measured at 5 °C at 400 MHz ^1H Larmor frequency. The samples contained 40-μM peptide in phosphate buffer (20 mM, pH 7.2) with 25-mM NaCl. The aggregation propensity of the Aβ variants were then studied through real-time 1D ^1H NMR experiments at 37 °C continued for 14 h at 1-h intervals. The integrated intensity of ^1H peaks at two regions (0.50–1.05 ppm, 6.50–8.00 ppm), after chemical shift using DSS ([…]) as a reference standard, was then calculated. After normalization by the integrated intensity of the DSS peak at 0 ppm, the relative intensity of the peptide ^1H peaks was used to probe peptide monomer consumption during the early phases of peptide aggregation."}, "[2]": {"assay": "Dynamic light scattering (DLS) of peptide supernatants", "format": "physicochemical"}, "[3]": {"assay": "Thioflavin T (ThT) fluorescence aggregation kinetics", "format": "physicochemical", "conditions": "40 μM peptide, HEPES 25 mM pH 7.4, 50 mM NaCl, 30 μM ThT, 37 °C, gently stirred", "method": "Peptide samples of 40 μM concentration were prepared in HEPES buffer (25 mM, pH 7.4) containing 50 mM NaCl and 30 μM Thioflavin T (ThT). The kinetics of Aβ aggregation were then followed by real-time fluorescence emission measurement of ThT while the sample was kept at 37 °C and gently stirred. The excitation and emission wavelengths were 446 and 485 nm, respectively, with slits of 10 nm each."}, "[4]": {"assay": "Transmission electron microscopy (TEM) of aggregates", "format": "physicochemical", "conditions": "0.1 mg/mL, HEPES 25 mM pH 7.4, 50 mM NaCl, 3 days at 37 °C with gentle stirring", "method": "Peptide samples of 0.1 mg/mL concentration in HEPES buffer (25 mM, pH 7.4, 50 mM NaCl) were incubated at 37 °C with gentle stirring. After 3 days of incubation, samples were diluted, deposited onto carbon-coated copper mesh grids and negatively stained with 2 % (w/v) uranyl acetate. The excess stain was washed away, and the sample grids were allowed to air-dry. The samples were then viewed with a 120-kV transmission electron microscope."}, "[5]": {"assay": "Far-UV circular dichroism (CD) spectroscopy", "format": "physicochemical", "conditions": "0.2 mg/mL, phosphate buffer 20 mM pH 7.2, 20 °C, monomeric state", "method": "Samples of 0.2 mg/mL peptide concentration in phosphate buffer (20 mM, pH 7.2) were prepared. The far-UV CD measurements were conducted on a Chirascan CD spectrometer, with a 1-mm path length quartz cell, 1-nm bandwidth and 8-s collection time for each point at 0.5 nm steps between 190 and 260 nm. The buffer spectrum was also measured and subtracted from the spectra of Aβ peptides. The temperature-dependence of secondary structure was studied through far-UV measurements at three different temperatures, 20, 30 and 40 °C. The reversibility of temperature-induced changes was checked with an additional CD spectrum measured after cooling down from 40 to 20 °C. The CD spectrum of the cooled sample was taken after 5 min of equilibration at 20 °C. The 0.2 mg/mL Aβ samples in phosphate buffer (20 mM, pH 7.2) containing 25 mM NaCl were incubated at 37 °C for 3 days with gentle stirring. Following ThT fluorescence measurements which confirmed the presence of ThT-reactive aggregates in the peptide samples, the far-UV CD spectra were obtained at 20 °C as described above."}, "[6]": {"assay": "SDS-PAGE Western blot of Aβ peptides (stable aggregates)", "format": "physicochemical", "conditions": "1 μg peptide, reducing conditions, antiserum 24311", "method": "Lyophilized Aβ peptides were dissolved in 10-mM NaOH at a concentration of 1 mg/mL, aliquoted in 50 μL volumes, flash-frozen in liquid nitrogen and stored at −80 °C until use. For Western blot analysis under reducing conditions, 1 μg peptides were loaded on 4–12 % VarioGels (Anamed), transferred to 0.45 μm nitrocellulose membranes and detected using the primary antiserum 24311 (pan-Aβ, 1:500) or monoclonal antibody 4G8 (Aβ17-24, Signet; 1:500). For Western blotting of mouse brain, whole brain SDS lysates were used. Running and transfer buffers were applied according to the manufacturer. The blots were developed using enhanced chemiluminescence according to the manufacturer (Roth). Horse radish conjugated swine anti-rabbit antibody was used as a secondary antibody (1:3,000, Dianova)."}, "primary cortical neurons": {"tested_on": "primary cortical neurons", "assay": "Calcein-AM cell viability assay", "format": "cell-based, Wistar rat", "method": "Cortical neurons from embryonic day 16–17 Wistar rat fetuses were prepared as previously described. In brief, dissociated cortical cells were plated at 50,000 cells/well in 48-well plates precoated with 1.5 mg/mL polyornithine (Sigma). Cells were cultured in a chemically defined Dulbecco’s Modified Eagle’s/F12 medium free of serum (Gibco) and supplemented with hormones, proteins and salts. Cultures were kept at 35 °C in a humidified 5 % CO2 atmosphere, and at 6–7 DIV, cortical population was determined to be at least 97 % neurons by immunostaining as done previously. At 6 DIV, the medium was removed and cortical neurons were incubated for 24 h with vehicle (cell culture medium) or Aβ peptides (dissolved in cell culture medium) at the indicated concentrations.\nFollowing a 24-h incubation of primary cortical neurons with Aβ peptides, cell viability was determined using a calcein-AM assay (Invitrogen, Molecular Probes). Briefly, cells were washed twice with PBS and incubated to protect from light for 30 min at room temperature in the presence of 2 μM calcein-AM solution prepared in PBS. Cells were then washed twice with PBS and incubated for 15 min at room temperature in PBS containing 1 % Triton X-100 (v/v). The level of calcein fluorescence was monitored by fluorescence emission at 530 nm after exciting at 485 nm, using a Fluostar microplate reader (BMG-Labtechnologies, France)."}, "C57BL/6 J wildtype mice": {"tested_on": "C57BL/6 J wildtype mice", "assay": "Y-maze working memory after intracerebroventricular injection of soluble Aβ", "format": "in vivo, mouse", "conditions": "50 pmol in 1 μL icv, male C57BL/6 J mice 12-week old, n = 6 per group, Y-maze on day 4, 5-min session", "method": "Male C57BL/6 J mice (12-week old, Janvier, Le Genest-St-Isle, France; n = 6 per treatment group) were housed five to six per cage with free access to food and water, and were kept in a constant environment (22 ± 2 °C, 50 ± 5 % humidity, 12-h light cycle). Under anesthetization, freshly prepared Aβ peptides (50 pmol in 1 μL; 0.1 M phosphate-buffered saline (pH 7.4)) or vehicle (0.1 M phosphate-buffered saline) were injected into the right ventricle, with stereotaxic coordinates from the bregma (AP −0.22, L −1.0 and D 2.5 in mm). Intracerebroventricular (icv) injections were made using a 10-μl Hamilton microsyringe fitted with a 26-gauge needle. Four days following icv infusion of Aβ peptides, working memory was assessed using the Y-maze test.\nImmediate spatial working memory performance in male C57BL/6 J wildtype mice (12-week old, Janvier, Le Genest-St-Isle, France; n = 6 per treatment group) was assessed by recording spontaneous alternation behavior in a Y-maze as described previously. […] The series of arm entries were recorded visually and arm entry was considered to be completed when the hind paws of the mouse were completely placed in the arm. […] The percentage alternation was calculated as the ratio of actual (total alternations) to possible alternations (defined as the number of arm entries minus two), multiplied by 100."}, "[7]": {"conditions": "DLS at 20 °C, 0.2 mg/mL, phosphate buffer 20 mM pH 7.4, 25 mM NaCl, after 24 h at 37 °C without agitation, supernatant after 16,000g 15 min"}},
  "note": "“Also recorded” adds a separate entry of the source.",
  "data": [
    {"substance": "Aβ4-42: N-truncated amyloid β peptide beginning with phenylalanine at position 4, purchased from PSL", "values": [
      {"measurement": "loss of initial 1H NMR signal intensity (monomer consumption)", "setting": "[1]", "result": "~20", "unit": "%"},
      {"measurement": "hydrodynamic radius of larger aggregates", "setting": "[2]; [7]", "result": "30 to 50", "unit": "nm"},
      {"measurement": "hydrodynamic radius of small (main) aggregates", "setting": "[2]; [7]", "result": "~ 10 nm"},
      {"measurement": "light scattering intensity upon aggregation (rank among five Aβ peptides)", "setting": "[2]; after 24 h at 37 °C, 0.2 mg/mL, phosphate buffer pH 7.4, 25 mM NaCl, three measurements of the same sample", "result": "biggest intensities"},
      {"measurement": "light scattering intensity before aggregation (rank among five Aβ peptides)", "setting": "[2]; freshly prepared 0.2 mg/mL, phosphate buffer pH 7.4, 25 mM NaCl, 20 °C, three measurements of the same sample", "result": "highest scattering intensity"},
      {"measurement": "formation of ThT-reactive aggregates", "setting": "[3]", "result": "significant ThT-reactivity already during the nucleation phase of aggregation"},
      {"measurement": "aggregate morphology by TEM", "setting": "[4]", "result": "clumps of fibrillar aggregates"},
      {"measurement": "secondary structure by far-UV CD spectrum", "setting": "[5]", "result": "disordered state; also recorded: unstructured in the monomeric state"},
      {"measurement": "higher molecular weight oligomers on SDS-PAGE after aging", "setting": "[6]; after 1 and 3 days of aging", "result": "higher molecular weight oligomers in addition"},
      {"measurement": "species on SDS-PAGE, freshly dissolved peptides", "setting": "[6]; freshly dissolved", "result": "monomers and aggregates most likely representing trimer/tetramers"},
      {"measurement": "effect on cell viability", "setting": "primary cortical neurons; 24 h incubation with freshly prepared peptide at different concentrations, calcein-AM fluorescence", "result": "dose-dependent reduction in cell viability"},
      {"measurement": "toxicity compared with Aβ4-40 at 5 μM", "setting": "primary cortical neurons; 24 h incubation, 5 μM, calcein-AM", "result": "more potent than Aβ4-40"},
      {"measurement": "toxicity profile compared to vehicle control", "setting": "primary cortical neurons; 24 h incubation, calcein-AM, ANOVA with Bonferroni multiple comparisons", "result": "strongest toxic effect"},
      {"measurement": "working memory (Y-maze alternation rate)", "setting": "C57BL/6 J wildtype mice", "result": "significantly reduced"}
    ]}
  ]
}
